Test system: Brevibacterium lactofermentum KFCC-10680
Experiment: Death rate after NTG mutagen treatment
Conditions: NTG final concentration 200 mg/l, 20 minutes; spread on minimal medium (Medium 1)

CN(N=O)C(=N)N[N+](=O)[O-]
death rate: 85%

From US7192760B2 (priority 2000, dated 2007)
